Among the data in the OPERA property sets (Mansouri et al. 2018) are log10 BCF values, retold here.

For the data set the following is noted: fish.

Compound `Cc1cc([N+](=O)[O-])cc([N+](=O)[O-])c1O` returned a log10 BCF of 0.46.
